Data: US20080009485A1, “Methods for the use of inhibitors of cytosolic phospholipase A2 in the treatment of thrombosis” (Wyeth, priority 2006, published 2008)

How the values were obtained:
[1] = system: Sprague Dawley outbreed rats; settings: 100 mg/kg oral gavage 2 hours before injury, flow recorded 30 minutes, controls occluded within 15-30 minutes
human platelets = settings: 10 μM ADP
[2] = system: Human platelet aggregation; assay: Platelet Function Analyzer (PFA-100) study, whole human blood in vitro; type: cell-based; settings: Collagen/Epinephrine cartridges, maximum closure time 300 seconds
Text: Platelet Function Analyzer (PFA-100®) Study

serum thromboxane B2 = settings: ApoE knockout mice, 3.3 mg per gram chow ad libitum

## O=C(O)c1ccc(CCCc2c(CCNS(=O)(=O)Cc3ccc(Cl)c(Cl)c3)n(C(c3ccccc3)c3ccccc3)c3ccc(Cl)cc23)cc1 [Example 44]
[1]
  carotid artery blood flow / occlusion after FeCl3 injury: a reduction of blood flow, but no occlusion
Human platelets; human whole blood
  concentration down to which complete blockade of the ATP release reaction was observed: ≤ 0.3 µg/mL
Human platelets; whole human blood, Example 44 tested from 0.31 to 5 μg/ml
  inhibition of platelet dense granule ATP release reaction: able to attenuate the release reaction at all concentrations tested
[2]
  concentration giving maximal prolongation of PFA-100 closure time: approximately 2.5 μg/ml
Serum thromboxane B2
  average reduction in serum thromboxane B2 levels compared to control mice: 56%
